Nrf2 activator – activates Nrf2 signaling. AREc32 ARE-luciferase reporter (MCF7-derived line), luminescence, 24 h. Potency, µM (doses to about 46.1 µM), hits mostly activators. 0.31% of 410,000 active. AID 624171; further: nearly all actives have a fitted effect of over 65% in size
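Luminescent ARE reporter assay in AREc32_Fluc cells: overnight plating at 37 deg C, 24 hr compound incubation, Steady-Glo added, 30 min RT before reading.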
miR-21 FLuc – miR-21 reporter, rising signal | HeLa miR-21 FLuc reporter, luciferase, 48 h | Potency, µM (highest dose often 38.3 µM) | 340,000 tested, under 10 active | AID 2288; active = well fitted rising curve with a large enough effect; inconclusive = small, poorly fitted or top-dose-only effect; inactive = no such curve, though single readings can be large or run the other way;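 further: miR-21 action dims this reporter so a rising signal means less miR-21 action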
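HeLa miR-21-FLuc reporter line, endogenous miR-21; 2000 cells/well in DMEM/10% FBS; compound titration up to ~40uM final, 48 h, 37 degree Celsius; luciferase detection reagent, 15 min lysis, CCD luminescence.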
A549 tox-1 – A549 cytotoxicity, counter-screen for Nrf2 inhibitors; A549 ARE-Fluc cells, CellTiter-Fluor viability, 18-24 h; Potency, µM (titrated, usually from 46 µM), usual class: inhibitors; 0.16% of 390,000 active
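Cytotoxicity counterscreen: CellTiter-Fluor fluorescence was measured in A549 ARE_Fluc cells after 18-24 h of compound exposure in a concentration series. The subsequent BugLite luminescent read reports ARE-luciferase activity.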
Nrf2 block – Nrf2 pathway inhibition; A549 ARE-Fluc reporter, luciferase luminescence, 18-24 h; Potency, µM (top dose mostly 46 µM), most hits filed as inhibitors; 2.1% of 360,000 active; AID 504444; further: nearly all actives have a fitted effect of over 60% in size
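Cells were seeded and rested 2 h, then exposed to compounds for 18-24 h. CellTiter-Fluor was read first as a viability measure. BugLite was added 15 min before the final luminescent read of ARE-luciferase activity in A549 cells.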
IL-2 act – activates IL-2 in a cell-based reporter assay. 0.065% of 360,000 active. IL-2 activation reporter assay, cell-based qHTS; stimulated with anti-CD3/CD4/CD28 beads; in transgenic mouse T cells. activation, % (series mostly up to about 46 µM); in the data active means activation above about 50%; inconclusive means mostly about 30% to 49%
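Using fluorescent plate cytometry, EGFP and DsRed are detected in transgenic mouse T cells stimulated 18 h at 37 degrees C with antibody-coated beads after 60 min compound pretreatment.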
ClpP mod – qHTS Assay for Activators of ClpP; purified B. subtilis ClpP, FRET peptide cleavage, 20 min; Potency, µM (series often up to 57.5 µM); ATP-dependent Clp protease proteolytic subunit (Bacillus subtilis (strain 168)), P80244; 1.9% of 340,000 active; active means well fitted falling curve with a large enough effect; inconclusive means small, poorly fitted or top-dose-only effect; inactive means no such curve, though single readings can be large or run the other way; further: the source files actives as falling curves though it sought activators and does not explain the sign; nearly all actives have a fitted effect of over 65% in size
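Buffer: 100 mM Tris/HCl pH8, 100 mM KCl, 0.05% low protease BSA, 2.5% glycerol, 0.01% Tween-20. ClpP 10 microg/mL final; 20 min RT; delta FRET normalized to ADEP and DMSO controls.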
FLuc enzyme inh – blocks purified firefly luciferase in Nrf2 counterscreen | Potency, µM (series often up to 57.5 µM), actives largely listed as inhibitors | purified firefly luciferase, luminescence inhibition | shares compounds with Nrf2 block | 4% of 1,400 active | AID 720522; further: nearly all actives have a fitted effect of over 65% in size
A549 tox-2 – A549 cytotoxicity, Nrf2 inhibitor counterscreen. shares compounds with Nrf2 block. A549 ARE-Fluc cells, cytotoxicity counterscreen. Potency, µM (titrated, usually from 46.1 µM), usual class: inhibitors. 2% of 1,400 active;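 further: cells exposed to compounds for 18 to 24 hours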
ARE-Fluc inh – Nrf2 inhibition confirmed, A549 ARE-luciferase. 74% of 1,400 active. Potency, µM (doses to about 46.1 µM), usual class: inhibitors. A549 ARE-firefly luciferase reporter, luminescence. AID 720524. shares compounds with Nrf2 block; further: nearly all actives have a fitted effect of over 65% in size
Large screens that a line does not name were inactive (follow-up assays come after a bar, where shown). Shown are actives, neighbours in structure and some others; about 3.7% of the full set was active somewhere. Unless noted, the call rests on the fitted dose curve; in most records, active means well fitted curve in the direction sought with a large enough effect; inconclusive means small, poorly fitted or top-dose-only effect, or another doubt; inactive means no such curve, though single readings can be large; an effect the other way counts as inactive or inconclusive.

Cc1nn(C)c(C)c1CN(C)S(=O)(=O)c1ccc(F)cc1	Nrf2 block inconclusive
COc1ccc(N2CCN(C(=O)CSc3nc(-c4ccccc4)no3)CC2)cc1	Nrf2 block inconclusive (no result: IL-2 act)
COc1ccc2[nH]c(=O)c(CN(Cc3cccs3)C(=S)Nc3cccc(C)c3)cc2c1	Nrf2 block 2.1µM | FLuc enzyme inh inactive | A549 tox-2 inactive | ARE-Fluc inh inconclusive
COc1ccc(C(=O)C2CCCN(Cc3cnc(N4CCOCC4)s3)C2)cc1F (stereo unspecified)	Nrf2 block inconclusive (no result: ClpP mod)
COc1ccc(C(=O)C2CCCN(Cc3cnc(N4CCOCC4)s3)C2)c(OC)c1 (stereo unspecified)	A549 tox-1 inconclusive, Nrf2 block 9.2µM (no result: ClpP mod) | FLuc enzyme inh inactive | A549 tox-2 inactive | ARE-Fluc inh inactive
CC(C)Oc1cccc(C(=O)C2CCCN(Cc3cnc(N4CCOCC4)s3)C2)c1 (stereo unspecified)	Nrf2 block 9.2µM (not shown: ClpP mod) | FLuc enzyme inh inactive | A549 tox-2 inactive
CC1Cc2cc(S(=O)(=O)CCC(=O)NCc3ccccc3Cl)ccc2N1C(=O)C1CC1 (stereo unspecified)	none (no result: IL-2 act)
Cc1ccc(Cl)cc1N1CCN(C(=O)c2cc(S(=O)(=O)N3CCCCC3)cn2C)CC1	none (no result: Nrf2 block, IL-2 act)
CC(=O)c1c(C)[nH]c(C(=O)OCC(=O)Nc2ccccc2Cl)c1C	Nrf2 block 5.8µM | FLuc enzyme inh inactive | A549 tox-2 inactive | ARE-Fluc inh 5.8µM
CCCN1CCN(c2ncnc3sc(C(=O)Nc4ccc(N(CC)CC)cc4C)c(C)c23)CC1	none (no result: Nrf2 block, IL-2 act)
Cc1nc2ccc(NC(=O)c3ccc(S(=O)(=O)N(C)C)cc3)cc2s1	Nrf2 block inconclusive
Cc1nc2ccc(NC(=O)c3cc(S(=O)(=O)N(C)c4ccccc4)ccc3Cl)cc2s1	Nrf2 block 5.2µM | FLuc enzyme inh inactive | A549 tox-2 inactive | ARE-Fluc inh inconclusive
Cc1nc2ccc(NC(=O)c3ccc(Cl)c(S(=O)(=O)N(C)c4ccccc4)c3)cc2s1	miR-21 FLuc inconclusive, Nrf2 block 3.3µM | FLuc enzyme inh inactive | A549 tox-2 inactive | ARE-Fluc inh inconclusive
O=C(Nc1cccc(S(=O)(=O)C(F)F)c1)c1ccc(S(=O)(=O)N2CCOCC2)cc1	none
COc1ccc(NS(=O)(=O)c2cccc(NC(=O)c3ccc(S(=O)(=O)N4CCCCCC4)cc3)c2)cc1	A549 tox-1 inconclusive, Nrf2 block 5.8µM | FLuc enzyme inh inactive | A549 tox-2 inactive | ARE-Fluc inh 5.8µM
O=C(Nc1cccc(S(=O)(=O)C(F)F)c1)c1ccc(S(=O)(=O)N2CCCC2)cc1	A549 tox-1 inconclusive, Nrf2 block 5.8µM (no result: ClpP mod) | FLuc enzyme inh inactive | A549 tox-2 inactive | ARE-Fluc inh inconclusive
COC(=O)c1ccccc1NC(=O)c1ccc(-c2nc(CSc3ccc(C)cc3)c(C)o2)cc1	Nrf2 block inconclusive (no result: IL-2 act)
Cc1oc(-c2ccc(C(=O)Nc3cccc(C(F)(F)F)c3)cc2)nc1CSc1ccccc1	miR-21 FLuc inconclusive, A549 tox-1 inconclusive, Nrf2 block 5.8µM (no result: IL-2 act) | FLuc enzyme inh inactive | A549 tox-2 inactive | ARE-Fluc inh 1.8µM
Cc1ccc2c(c1)c(/C=C/c1cc[n+](C)cc1)c(C)n2C	miR-21 FLuc inconclusive, A549 tox-1 inconclusive, Nrf2 block 3.7µM | FLuc enzyme inh inactive | A549 tox-2 inconclusive | ARE-Fluc inh 6.5µM
Cc1cccc(Cn2c(=O)n(-c3ccccc3C)c(=O)c3c2c2cc(C)ccc2n3C)c1	none (no result: IL-2 act)
C[C@H]1C[C@@H]2[C@H]([C@@H](O)C[C@@]3(C)[C@H]2CC[C@]3(O)C(=O)CO)[C@@]2(C)C=CC(=O)C=C12	Nrf2 block 0.026µM | FLuc enzyme inh inactive | A549 tox-2 inactive | ARE-Fluc inh 0.033µM
CCOC(=O)O[C@]1(C(=O)COC(=O)CC)CC[C@H]2[C@@H]3CCC4=CC(=O)C=C[C@]4(C)[C@H]3[C@@H](O)C[C@@]21C	Nrf2 block 0.058µM (no result: miR-21 FLuc) | FLuc enzyme inh inactive | A549 tox-2 inactive | ARE-Fluc inh 0.058µM
C[C@]12C=CC(=O)C=C1CC[C@@H]1[C@@H]2[C@@H](O)C[C@@]2(C)[C@H]1CC[C@]2(O)C(=O)COC(=O)CCC(=O)NCCc1ccc(O)cc1	Nrf2 block 0.12µM | FLuc enzyme inh inactive | A549 tox-2 8.2µM | ARE-Fluc inh 5.8µM
CC(=O)OCC(=O)[C@@]1(O)CC[C@H]2[C@@H]3CCC4=CC(=O)C=C[C@]4(C)[C@H]3C(=O)C[C@@]21C	Nrf2 block inconclusive
C[C@]12C=CC(=O)C=C1CC[C@@H]1[C@@H]2[C@@H](O)C[C@@]2(C)[C@H]1CC[C@]2(O)C(=O)COC(=O)CCC(=O)O	Nrf2 block 0.046µM | FLuc enzyme inh inactive | A549 tox-2 inactive | ARE-Fluc inh 0.23µM
C[C@]12C=CC(=O)C=C1CC[C@@H]1[C@@H]2[C@@H](O)C[C@@]2(C)[C@H]1CC[C@]2(O)C(=O)CO	Nrf2 block 0.058µM | FLuc enzyme inh inactive | A549 tox-2 inactive | ARE-Fluc inh 0.073µM
CC(C)c1ccc(-c2nnn(CCC(=O)O)n2)cc1	miR-21 FLuc inconclusive, Nrf2 block 0.33µM | FLuc enzyme inh 11µM | A549 tox-2 inactive | ARE-Fluc inh 0.82µM
O=C(O)CCn1nnc(-c2cccs2)n1	none
N#Cc1nc(-c2ccco2)oc1N1CCN(c2cccc(Cl)c2)CC1	Nrf2 block 1.8µM, ClpP mod 32µM | FLuc enzyme inh inactive | A549 tox-2 inconclusive | ARE-Fluc inh 10µM
O=C(NCC(c1ccco1)N1CCc2ccccc2C1)c1ccc(Cl)c([N+](=O)[O-])c1 (stereo unspecified)	none (no result: miR-21 FLuc)
O=C(NCC(c1ccco1)N1CCCC1)c1ccc(Cl)c(S(=O)(=O)N2CCc3ccccc32)c1 (stereo unspecified)	A549 tox-1 8.2µM, Nrf2 block 1.3µM (not shown: miR-21 FLuc) | FLuc enzyme inh inactive | A549 tox-2 inactive
COc1cc(NC(=O)N2CCC(CN3CCCCCC3)CC2)cc(OC)c1OC	Nrf2 block inconclusive (no result: IL-2 act)
